{"sequences": {"note": "Sequences of proteins named here, by UniProt entry; tags and fusion partners are left off. Residues count along the entry.", "UniProt A3FQ16, 1-538": "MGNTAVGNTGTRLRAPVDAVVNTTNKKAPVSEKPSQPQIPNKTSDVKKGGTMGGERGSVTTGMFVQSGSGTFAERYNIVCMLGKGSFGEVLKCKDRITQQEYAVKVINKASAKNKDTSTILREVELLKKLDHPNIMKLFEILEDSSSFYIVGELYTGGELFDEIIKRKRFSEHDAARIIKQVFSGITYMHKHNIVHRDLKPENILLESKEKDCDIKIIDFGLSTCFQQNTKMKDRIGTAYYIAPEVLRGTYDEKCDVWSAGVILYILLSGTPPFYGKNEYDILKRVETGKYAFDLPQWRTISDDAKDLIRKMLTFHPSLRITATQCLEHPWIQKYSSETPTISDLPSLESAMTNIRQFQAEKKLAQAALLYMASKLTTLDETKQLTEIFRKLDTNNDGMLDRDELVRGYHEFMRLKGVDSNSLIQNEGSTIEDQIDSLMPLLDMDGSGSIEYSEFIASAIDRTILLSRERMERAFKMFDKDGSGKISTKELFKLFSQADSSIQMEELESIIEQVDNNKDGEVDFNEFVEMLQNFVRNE", "UniProt Q9BJF5, 1-507": "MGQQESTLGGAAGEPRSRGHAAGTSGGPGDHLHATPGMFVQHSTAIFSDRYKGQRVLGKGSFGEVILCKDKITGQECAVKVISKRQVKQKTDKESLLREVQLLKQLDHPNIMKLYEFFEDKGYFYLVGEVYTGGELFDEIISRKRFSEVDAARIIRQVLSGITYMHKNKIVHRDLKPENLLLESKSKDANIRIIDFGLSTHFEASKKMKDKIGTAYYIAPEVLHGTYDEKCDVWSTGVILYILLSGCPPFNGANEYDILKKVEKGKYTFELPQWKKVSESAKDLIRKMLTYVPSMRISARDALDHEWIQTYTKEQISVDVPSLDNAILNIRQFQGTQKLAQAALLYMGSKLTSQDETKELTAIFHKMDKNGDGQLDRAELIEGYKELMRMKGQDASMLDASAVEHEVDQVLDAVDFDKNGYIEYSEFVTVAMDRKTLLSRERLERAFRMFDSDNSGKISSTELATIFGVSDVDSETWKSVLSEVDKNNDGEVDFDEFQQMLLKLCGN"}, "source": "patent US9765037B2", "about": "(dated 2017)", "key": {"CpCDPK1": {"biological_target": "CpCDPK1 (Cryptosporidium parvum (strain Iowa II), UniProt A3FQ16)"}, "[1]": {"system": "P. falciparum NF-54 strain gametocytes", "format": "cell-based, Plasmodium falciparum"}, "TgCDPK1": {"biological_target": "TgCDPK1 (Toxoplasma gondii, UniProt Q9BJF5)", "assay": "biochemical", "details": "IC50 values"}}, "note": "“And” between values parts separate entries of the source, which are not always exact repeats. Identical values can stand only once. “Also recorded” adds a separate entry of the source. Like-named read-outs stand apart in the source and are kept apart here."}
{"compound": "CC(C)n1nc(-c2ccc3ccccc3c2)c2c(N)ncnc21", "note": "[Compound 7p, 1-isopropyl-3-(naphthalen-2-yl)-1H-pyrazolo[3,4-d]pyrimidin-4-amine]", "values": [{"measurement": "IC50", "setting": "CpCDPK1; read-out: CpCDPK1 IC50", "result": 0.01, "unit": "µM"}]}
{"compound": "CC(C)Oc1ccc2cc(-c3nn(C(C)C)c4ncnc(N)c34)ccc2c1", "note": "[Compound 11, 3-(6-isopropoxynaphthalen-2-yl)-1-isopropyl-1H-pyrazolo[3,4-d]pyrimidin-4-amine]", "values": [{"measurement": "IC50", "setting": "CpCDPK1; read-out: IC50 (μM) CpCDPK1", "result": 0.0573, "unit": "µM"}]}
{"compound": "CCOc1ccc2cc(-c3nn(CC4CCNCC4)c4ncnc(N)c34)ccc2c1", "note": "[Compound 29, 3-(6-ethoxynaphthalen-2-yl)-1-(piperidin-4-ylmethyl)-1H-pyrazolo[3,4-d]pyrimidin-4-amine]", "values": [{"measurement": "prevalence of oocyst infections", "setting": "[1]; 100 nM", "result": "reduced the prevalence of oocyst infections"}, {"measurement": "infection of A. stephensi midguts", "setting": "[1]; 1 μM or 3 μM", "result": "prevented"}, {"measurement": "infective sporozoites in dissected salivary glands of A. stephensi", "setting": "[1]; 3 μM", "result": "complete absence of infective sporozoites"}, {"measurement": "P. falciparum exflagellation", "setting": "[1]; 1 and 3 μM final concentration in blood", "result": "complete suppression; also recorded: prevented the exflagellation of microgametes"}, {"measurement": "P. falciparum exflagellation events, repeat experiment", "setting": "[1]; 1 or 3 μM", "result": "suppressed completely"}]}
{"compound": "CC(C)(C)n1nc(-c2cccc3ccccc23)c2c(N)ncnc21", "note": "[NA-PP1]", "values": [{"measurement": "IC50", "setting": "TgCDPK1", "result": "989 nM and 978 nM"}]}
